Assay results from PubChem BioAssay AID2057 (The Scripps Research Institute Molecular Screening Center, 2009).
The entries are a selection whose mix differs from that of the whole data set. The source made the active and inactive calls.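 The calls were made as follows: active = inhibition above the mean inhibition of all tested compounds plus 3 SD, set per campaign (cut at about 40% in these data); inactive = the rest.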

The chains behind the UniProt entries cited, without tags or fusion partners.
UniProt Q07820, whole entry, looked up: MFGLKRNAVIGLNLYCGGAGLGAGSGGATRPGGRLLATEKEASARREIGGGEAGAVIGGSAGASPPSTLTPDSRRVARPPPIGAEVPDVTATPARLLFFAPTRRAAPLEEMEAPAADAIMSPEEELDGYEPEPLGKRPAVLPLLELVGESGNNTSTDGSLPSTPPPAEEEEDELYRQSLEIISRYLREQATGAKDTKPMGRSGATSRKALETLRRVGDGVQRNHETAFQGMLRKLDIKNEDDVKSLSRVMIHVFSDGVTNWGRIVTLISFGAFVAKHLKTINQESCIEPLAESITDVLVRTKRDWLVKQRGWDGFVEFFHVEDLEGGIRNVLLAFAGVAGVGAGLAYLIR

These molecules were tested against Induced myeloid leukemia cell differentiation protein Mcl-1 (Homo sapiens) (UniProt Q07820) (assay: inhibitors of MCL1 binding to BIM-BH3, primary screen, biochemical, fluorescence polarization (AID 2057;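 also: 0% = DMSO wells and 100% = unlabeled Bim-BH3 peptide control; higher means more loss of mP so more displacement of Bim peptide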)). Conditions: GST-MCL1 / FITC-Bim-BH3 fluorescence polarization; at 10.9 µM; stronger effect = higher value.

Structure (SMILES)	inhibition
O=P1(Nc2ccc(Br)cn2)COc2ccccc2OC1	inactive: 11.7%
NS(=O)(=O)c1cccc(NC(=O)COC(=O)C(O)(c2ccccc2)c2ccccc2)c1	inactive: -2.48%
O=[As](O)(c1cccs1)c1cccs1	inactive: -6.12%
Cc1ccc(OCC(=O)OC2CN3CCC2CC3)cc1 (centres undefined)	inactive: 1.47%
Nc1cccc([As](=O)(O)c2ccccc2)c1	inactive: 10.1%
O=P1(Nc2ncccn2)COc2ccccc2OC1	inactive: 0.43%
Clc1n[nH]nc1-c1nn[nH][15n]1	inactive: 4.52%
CC(C)(C)C(=O)NC(Sc1ncccn1)C(Cl)(Cl)Cl (centres undefined)	inactive: 4.18%
CN(CCCl)Cc1cc(Cl)c(NC2=NCCN2)c(Cl)c1	inactive: 5.39%
CCOP(=O)(Nc1ccc(C)cn1)OCC	inactive: 1.74%
O=P1(Nc2ccccn2)COc2ccccc2OC1	inactive: -0.8%
CCC1=CC2Cc3nc4ccc(Cl)cc4c(N)c3C(C1)C2 (centres undefined)	inactive: 7.41%
CCOP(=O)(NC(=NC(C)c1ccccc1)NC(C)c1ccccc1)OCC (centres undefined)	inactive: -0.17%
O=[As](O)(c1ccccc1Br)c1ccccc1Br	inactive: -7.68%
CC1(CBr)Cn2c(nc3ccccc3c2=O)S1 (centres undefined)	inactive: -2.88%
CC(C)/C=N\N=C(\N)N[N+](=O)[O-]	inactive: -4.45%
CN(C(=O)Cc1ccc(Cl)c(Cl)c1)[C@@H]1CCCC[C@H]1N1CCCC1	inactive: 2.9%
COc1ccccc1CNC(=O)COC(=O)C(O)(c1ccccc1)c1ccccc1	inactive: -1.91%
O=C(COc1ccccc1)OC1CN2CCC1CC2 (centres undefined)	inactive: 1.05%
O=C(Nc1ccncc1[N+](=O)[O-])c1ccc([N+](=O)[O-])cc1[N+](=O)[O-]	inactive: 5.67%
CCC(C)N(CC(C)C)C(=S)SC(NC(C)=O)C(Cl)(Cl)Cl (centres undefined)	inactive: 17.5%
CCOC(=O)c1ccc(NC(=O)C(C)(CCl)SC)cc1 (centres undefined)	inactive: -4.66%

Structure (SMILES)	inhibition
O=C(OC1CN2CCC1CC2)c1cccc([N+](=O)[O-])c1 (centres undefined)	inactive: -2.84%
Cc1cc(SC(NC(=O)c2ccccc2)C(Cl)(Cl)Cl)nc(C(C)C)n1 (centres undefined)	inactive: 20.6%
CCOC(=O)Nc1ccc([As](=O)(O)O)c(O)c1	inactive: 1.48%
O=P(Nc1ccccn1)(c1cccc2ccccc12)c1cccc2ccccc12	inactive: 1.83%
Cc1cc(SC(NC=O)C(Cl)(Cl)Cl)ncn1 (centres undefined)	inactive: 10.2%
CCOC(=O)Nc1cccc([As](=O)(O)O)c1	inactive: 2.88%
Cc1ccc2nc3c(c(C)c2c1)CC(C(Cl)Cl)S3 (centres undefined)	inactive: -4.42%
Cc1ccc(OP(=O)(Nc2ccc([N+](=O)[O-])cn2)Oc2ccc(C)cc2)cc1	inactive: -1.05%
O=[As](O)(c1ccc(O)cc1)c1ccccc1O	inactive: -7.61%
C[As](=O)(O)c1cccc(C(=O)O)c1	inactive: 9.44%
COc1cc(C(=O)NCC2(N3CCOCC3)CCCCC2)ccc1OCC(C)C	inactive: -0.9%
CCN(CC)C(=S)SC(NC=O)C(Cl)(Cl)Cl (centres undefined)	inactive: 1.36%
CC(C)NC(=O)NP(=O)(Oc1ccccc1)Oc1ccccc1	inactive: 3.34%
O=[N+]([O-])c1cc([N+](=O)[O-])c(-c2ccn[nH]2)s1	inactive: 2.45%
CC(C)c1ccc(OP(=O)(Nc2ccccn2)Oc2ccccc2F)cc1 (centres undefined)	inactive: -2.9%
ClCCSc1nnc(-c2cccnc2)o1	inactive: 7.6%
COc1ccc2nc(NP(=O)(c3ccccc3)c3ccccc3)sc2c1	inactive: 5.34%
COc1cc(I)ccc1[As](=O)(O)O	inactive: 8.15%
O=C(OC1CN2CCC1CC2)C12CC3CC(CC(C3)C1)C2 (centres undefined)	inactive: 1.36%
Cc1cc(=O)[nH]c(N[N+](=O)[O-])n1	inactive: -3.35%
Cc1c2c(nc3ccccc13)SC(C(Cl)Cl)C2 (centres undefined)	inactive: 7.76%
COc1ccc(N/C(=N/P(=O)(N2CCOCC2)N2CCOCC2)N2CCOCC2)cc1	inactive: -4.34%
